The record followed here is US9932333B2, “Benzothiazole compound and medicine containing same” (JAPAN SCIENCE AND TECHNOLOGY AGENCY, priority 2014, dated 2018).

Sequences of proteins named here, by UniProt entry; tags and fusion partners are left off. Residues count along the entry.
UniProt P05067, 672-713 limits assumed: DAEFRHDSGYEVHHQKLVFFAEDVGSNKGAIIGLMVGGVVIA

The assay concerns the target Aβ1-42 aggregated in advance (Homo sapiens, UniProt P05067). Nature of the assay: Aβ affinity (Kd association curve from fluorescence intensity). It counts as binding. The following applies: aggregated Aβ1-42 0.5 μM, phosphate buffer pH 7.4, room temperature 1 hour. The source says:
For compound (1a), the excitation wavelength was set to 460 nm, and the fluorescence wavelength was set to 515 nm. A Kd association curve was obtained from the fluorescence intensity using KaleidaGraph 4.5 (Synergy Software, Reading, Pa.).

Structures are written as SMILES.

A word on the Kd: it is the constant that tells how readily two partners part at equilibrium. For the molecule `Cc1ccc2c(c1)sc(-c1ccc(N(C)C)cc1)[n+]2C` [thioflavin T, reference compound], the Kd came to 2.9 µM.
